# Binding of CDR-mutated scFvs to a peptide of the spike HR2 region

Antigen: PDVDLGDISGINAS, a 14-residue peptide of the SARS-CoV-2 spike HR2 region.

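Phage display of a naive human antibody library on the peptide gave the parent. The library (AAYL49) carries one to three amino acid substitutions per variant, with no insertions or deletions. The scFvs were displayed on barcoded MATa yeast, the peptide on MATalpha yeast. After mating in shaken culture at 30 °C for 16 h, diploids were selected and their barcode pairs sequenced. A regression on co-assayed BCL2-family reference pairs converts the normalised counts of each replicate to an apparent Kd. The assay was run in three technical replicates.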

Parent: Ab-14, a human scFv built as VH, the linker GGGGSGGGGSGGGGS, VL. Only the CDRs of the heavy chain vary.
VH: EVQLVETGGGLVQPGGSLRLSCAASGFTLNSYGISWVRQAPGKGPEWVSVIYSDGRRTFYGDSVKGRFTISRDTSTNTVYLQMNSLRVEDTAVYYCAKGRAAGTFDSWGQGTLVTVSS
VL: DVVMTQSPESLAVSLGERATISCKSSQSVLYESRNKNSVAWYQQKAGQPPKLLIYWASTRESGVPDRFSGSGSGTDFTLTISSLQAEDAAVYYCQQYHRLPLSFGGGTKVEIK

Changes read parent residue, position, new residue, counted from the first residue of the VH shown. Affinities are written as log10 Kd with Kd in nM; a lower number is a better binder. Replicates are averaged; those with no signal do not enter the mean. "nd" marks a missing value. The strain was present, yet no cells mated with the target were sequenced in any replicate, which points to weak or no binding. Nonspecific signal, from three strains lacking the peptide, appeared in 15% of pairings of library AAYL49, centred on 4.06 (5% of these signals below 2.83); values are not corrected for it. For reference, the parent read 0.65 as the reference entry and 4.11 (one replicate of three) as a member of this library.

| changes | log10 Kd (nM), mean | detected |
|---|---|---|
| N30R G33S D62I | nd | 0/3 |
| S35N R56F D106T | 2.48 | 1/3 |
| I34P Y52K A101L | nd | 0/3 |
| S53M D54H F105D | 5.44 | 2/3 |
| S31W S35A | nd | 0/3 |
| S31T Y32L D54K | 4.60 | 3/3 |
| Y52K T58N D106L | 5.54 | 3/3 |
| G33L K65H R100S | 3.93 | 1/3 |
| S35E T58Q S63C | nd | 0/3 |
| F27L R56K V64P | 5.04 | 1/3 |
| R57F S63K G99H | 4.61 | 1/3 |
| K65F D106L | nd | 0/3 |
| G33S S63L | nd | 0/3 |
| G33D R57H G103Q | 2.21 | 3/3 |
| F27T R56I T58G | nd | 0/3 |
| Y52P G99L D106A | nd | 0/3 |
| S35W S53K R100C | 3.75 | 1/3 |
| N30T T58H T104W | 2.04 | 1/3 |
| L29M S53A G99C | 1.52 | 3/3 |
| S31D G103A D106N | 5.31 | 1/3 |
| N30I Y60V G103L | nd | 0/3 |
| L29N D62A A101V | nd | 0/3 |
| G26D F27I L29Q | 4.04 | 1/3 |
| D54L G55W | 4.70 | 2/3 |
| S31C F59H K65T | 3.82 | 3/3 |
| G26R L29Y G103H | 4.81 | 1/3 |
| S31W R56T F59L | 3.76 | 1/3 |
| L29V D54Q D106V | 3.14 | 1/3 |
| F27W L29W | 4.37 | 2/3 |
| I51Y D54Q S63R | 3.70 | 2/3 |
| I51N T58C A101H | nd | 0/3 |
| S31W R56V A102Y | nd | 0/3 |
| G61S V64Y F105T | nd | 0/3 |
| F59R G61N R100A | 2.63 | 2/3 |
| N30M I34N D106V | 3.86 | 1/3 |
| S53V T104F S107D | nd | 0/3 |
| G33F F59T F105H | 5.60 | 3/3 |
| G99Q A102I G103M | nd | 0/3 |
| S31F S35P A102F | nd | 0/3 |
| D54I T58Q S107A | nd | 0/3 |
| T28D Y60M A102Y | 0.78 | 3/3 |
| G26N Y52I F59V | 4.95 | 2/3 |
| S31L Y52R A101V | 4.46 | 1/3 |
| N30P D54Q G61K | 3.46 | 1/3 |
| V50L G103A | nd | 0/3 |
| G33T I51T A102H | 4.06 | 1/3 |
| N30L S53D G99S | 3.39 | 1/3 |
| D54C G99M R100G | nd | 0/3 |
| F27Q Y52L S107T | 4.85 | 1/3 |
| N30K D54L T58A | 4.53 | 2/3 |
| G99L A102L S107G | nd | 0/3 |
| Y52I Y60P A102Q | 3.38 | 1/3 |
| G99F A102K T104P | 4.15 | 1/3 |
| I51T G61H S107F | nd | 0/3 |
| L29E R57T F59T | 4.43 | 1/3 |

Top 6 of the variants detected in all replicates, tightest first:

| changes | log10 Kd (nM), mean | detected |
|---|---|---|
| T28D Y60M A102Y | 0.78 | 3/3 |
| L29M S53A G99C | 1.52 | 3/3 |
| G33D R57H G103Q | 2.21 | 3/3 |
| S31C F59H K65T | 3.82 | 3/3 |
| S31T Y32L D54K | 4.60 | 3/3 |
| Y52K T58N D106L | 5.54 | 3/3 |

Source: Engelhart et al. 2022 (doi:10.1038/s41597-022-01779-4), MIT Lincoln Laboratory and A-Alpha Bio; data file from the FLAb repository.